# Results reported in PubChem BioAssay AID493140 (UCLA Molecular Screening Shared Resource, 2011).
# The list shows a part of the results, in another mix than the full data. Calls of active or inactive are those of the source. How the calls were made is not given here.
# Assay: compounds altering viability of human ES cells (AID 493140);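 further: cells exposed to compounds for four days before counting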
# Conditions: human embryonic stem cell survival screen; stronger effect = higher value
row,Structure (SMILES),survival
1,NC(=O)Nc1ccc([As](=O)(O)O)cc1,inactive: 12.2
